The values that follow come from PMC7613515, “Reading and erasing of the phosphonium analogue of trimethyllysine by epigenetic proteins” (Communications Chemistry, 2022).

This assay deals with T1, KDM4EJmjC (M1–Q337) (Homo sapiens, UniProt B2RXH2).
T1 construct: We chose human KDM4EJmjC (M1–Q337); made in house
T1 sequence (B2RXH2 1-337): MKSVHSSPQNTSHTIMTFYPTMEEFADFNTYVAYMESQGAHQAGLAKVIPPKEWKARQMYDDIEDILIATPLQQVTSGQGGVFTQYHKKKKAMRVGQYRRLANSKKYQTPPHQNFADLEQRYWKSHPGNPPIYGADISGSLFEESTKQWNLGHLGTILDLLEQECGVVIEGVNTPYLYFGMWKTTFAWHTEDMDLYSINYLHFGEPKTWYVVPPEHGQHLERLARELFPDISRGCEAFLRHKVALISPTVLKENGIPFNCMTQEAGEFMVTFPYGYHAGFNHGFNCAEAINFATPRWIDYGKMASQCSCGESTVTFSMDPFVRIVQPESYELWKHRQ
Description: LC-MS demethylation assay, KDM4EJmjC. Conditions: LC-MS time-course, KDM4EJmjC 0.5 µM, peptide 5.0 µM, 22 °C. The format is biochemical. As for the experimental part:
KDM4EJmjC demethylation studies of H3_1-15K9me3 or H3_1-15KP9me3 incubations using LC-MS were conducted as reported, using Agilent RapidFire 365 and Agilent QTOF 6530 machines. In brief, samples were aspirated under vacuum (~50 µL), passed through a loop (10 µL, 400 ms) and wash on a SPE cartridge A (C4) using solvent A (1.5 mL·min^−1, 4500 ms). Peptides were eluted using solvent B (1.25 mL·min^−1, 4500 ms) and directed to the MS for measurements. The cartridge was equilibrated for the next sample (1.25 mL·min^−1, 500 ms) and needle was cleaned with an organic wash solution. Between each sample, an alternating inorganic, organic and inorganic washes were performed to avoid any potential carry over on the SPE cartridge from previous sample. Solvent A: formic acid (0.1%) in water; Solvent B: formic acid (0.1%), acetonitrile (85%) in water; Inorganic wash: water; Organic wash: acetonitrile. Demethylation reactions were conducted in a temperature-controlled room (22 °C) and the MS machine Real-time monitoring mode. A solution [Peptide (6.0 µM), sodium L-ascorbate (600 µM), (NH4)2Fe(II)(SO4)2 (60 µM), disodium 2OG salt (120 µM) in buffer] […] (100 µL) was added and samples from the solution were taken every 2–2.5 min and measured. Note that the time was recorded between the addition and the first aspiration of the enzymatic reaction mixture [Peptide and Enzyme solution mixture]. […]

With “ARTKQTAR(Kme3)STGGKA [H3K9me3, natural trimethyllysine control peptide, histone H3 residues 1–15, reference compound]”, the “demethylation” value is “both are substrates”.
